Test results as given in patent publication EP3277282B1, “DASATINIB FOR USE IN THE TREATMENT, REGRESSION OR DECELERATING THE PROGRESS OF FIBROTIC LUNG DISEASES” (Istanbul Universitesi Rektorlugu, priority 2015, dated 2016).

Tested on: lungs of BLM treated mice
Conditions: on average, from 5 (BLM only) to 3; BLM 0.08 mg/kg single intra-tracheal dose; dasatinib 8 mg/kg by gavage; day 21; scale 0 to 8

SMILES: Cc1nc(Nc2ncc(C(=O)Nc3c(C)cccc3Cl)s2)cc(N2CCN(CCO)CC2)n1 [Dasatinib, N-(2-chloro-6-methylphenyl)-2-[[6-[4-(2-hydroxyethyl)-1-piperazinyl]-2-methyl]-4-pyrimidinyl]amino]-5-thiazolecarboxamide mono-hydrate]
- degree of fibrosis (Ashcroft score): 3
